We go through seven molecules from patent publication US20250302927A1, “MODIFIED FACTOR XA POLYPEPTIDES AND METHODS OF USE” (The United States of America, as represented by the …, priority 2022, published 2025).

In data set [1] the test system is Male CD-1 mice. Description: Tail clip bleeding model. It counts as in vivo. The settings on record: for Bleeding profile (bleeding graphs): apixaban 4 mg/kg, FIG. 4D. How it is done: Tail clip bleeding model: Animal experiments were performed at the U.S. FDA/CBER Division of Veterinary Services in accordance with the protocol approved by the institutional animal care and use committee (IACUC). Male CD-1 mice (Charles River Laboratories, Kingston, NY, USA) were 5-8 weeks old weighing 28-34 grams. […] After 5 minutes, 3 mm of tail were cut, after which the tail was immersed in a tube with predefined volume of 0.9% NaCl at 37° C. and allowed to bleed for 30 minutes under close observation. Blood loss was determined by measuring hemoglobin content and expressed as μl/mouse.
The design of the in vivo study in mice is depicted in FIG. 3B. […] The tails of the mice were clipped, and bleeding monitored by measuring bleeding time (FIG. 3C) and blood loss (FIG. 3D). […] All bleeding episodes were plotted using the length and number of episodes of bleeds for each individual mouse (FIG. 3E) to determine the bleeding profiles.
Additional experiments were performed in the mouse model, as above, but with the inclusion of andexanet alfa for comparison. The experimental strategy is depicted in FIG. 4A.

A short description of data set [2]: Inhibition of FXa variant chromogenic substrate cleavage by apixaban (IC50). The class given is biochemical, human. The settings on record: for IC50: apixaban, fixed amounts of FXa variants, increasing apixaban concentrations. How it is done: Chromogenic FXa activity assay: The FXa activity assay based on CS11(65)a chromogenic substrate (Biophen) was performed as described below. […] For each sample, substrate cleavage was calculated by taking the average rate over the time frame between 1 and 2 minutes.
Activity and inhibitory concentration were determined for a larger series of variants (FIGS. 2A and 2B). Activities for all variants were determined using the rate of chromogenic substrate cleavage in pure buffer system at different FXa concentrations. Variants were assigned into five brackets (FIG. 2A). […] Taking a balance between activity and IC50 values (Table 2), six potentially beneficial variants were identified. To be assigned as potentially beneficial the combined scores were ***** but the individual score could not be less than **.

The subject of data set [3] is tissue factor (TF)-triggered pooled normal human plasma. The experiment in a line: Thrombin generation assay in plasma spiked with apixaban. It counts as biochemical. The settings on record: for Km: activity in the presence of a fixed amount (1 μM) of apixaban, read-out: apparent Km. The protocol: Thrombin generation assay: The procoagulant activity of FXa variants was evaluated by a previously described thrombin generation assay in tissue factor (TF)-triggered pooled normal human plasma (Affinity Biologicals Inc, Ontario, Canada). […] Fluorescence (product of thrombin substrate consumption) was recorded in a kinetic mode at 37° C. using a Tecan Infinite F500 every 45 seconds for a period of 1.7 hours. In-house software was used to calculate calibrate thrombin generation assay (using an internal thrombin calibrator CAT® from Stago, Parsippany, NJ, USA) and calculate thrombin peak height parameter.

Data set [4] addresses T1, Tissue factor pathway inhibitor (TFPI) (Homo sapiens, UniProt P10646).
T1 construct: BioMedica Diagnostics (assay kit)
T1 sequence (P10646 29-304): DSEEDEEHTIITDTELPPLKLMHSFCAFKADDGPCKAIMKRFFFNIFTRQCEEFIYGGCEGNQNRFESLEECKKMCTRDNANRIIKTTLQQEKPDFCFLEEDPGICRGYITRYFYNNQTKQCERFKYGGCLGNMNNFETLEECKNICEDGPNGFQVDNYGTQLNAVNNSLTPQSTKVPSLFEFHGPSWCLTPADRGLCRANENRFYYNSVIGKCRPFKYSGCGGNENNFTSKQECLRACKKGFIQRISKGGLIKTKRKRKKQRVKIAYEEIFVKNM
Description: ACTICHROME TFPI assay. The note with it: 4 nM variants vs 100 nM andexanet alfa, FIG. 5. The class given is biochemical. The protocol: Tissue factor pathway inhibitor (TFPI) plays a very important role in regulation of the procoagulant activity of tissue factor (TF). […] TFPI activity was determined using ACTICHROME® TFPI assay (BioMedica Diagnostics) according to manufacturer's protocol. […] Thus, these agents are believed to have minimal risk of thrombogenesis.

Where [5] appears, read: 1 mg/kg infused 5 min after apixaban, FIG. 3C.
[6] abbreviates: apixaban dose of 4 mg/kg, FIG. 4B.
[7] abbreviates: apixaban dose of 4 mg/kg, FIG. 4C.

With “FX: vitamin K-dependent coagulation factor X of the blood coagulation cascade [reference compound]”, the Bleeding time result in data set [1] (setting [5]) is listed as “did not significantly reduce the bleeding time”.
What is called IC50 is the midpoint of a concentration-inhibition curve. Read a high IC50 as lower potency. Molecule “Variant 63: modified Factor Xa polypeptide, G450A, S1 subsite, SEQ ID NO: 6” came in with an IC50 in data set [2] of 51 to 150 nM.
Still for that read-out and setting: the same measure for “Variant 66: modified Factor Xa polypeptide, substitution C415A”: less than 5 nM; for “Variant 68: modified Factor Xa polypeptide, C415A + C443A, S1 subsite, SEQ ID NO: 10”: 151 to 250 nM.
For orientation: Km means the substrate concentration at which the rate is half of its maximum. In the case of “wild type FXa: wild type (unmodified) Factor Xa, amino acids 41-488 of SEQ ID NO: 1 [reference compound]”, the Bleeding time entry in data set [1] (setting [5]) is “did not significantly reduce the bleeding time”; in data set [1] (setting [6]), “no significant effect”. Besides, the “Bleeding profile (bleeding graphs)” value in data set [1] is “mostly uninterrupted flow of blood”. Further, in data set [1] (setting [7]), the Blood loss result is listed as “no significant effect”. Also, the Km in data set [3] turned out to be 0.0031 ± 0.0004 µM.

B1: FXa variant 70 (amino acids 312-317 replaced with STYVPG) (protein)
chain: GPANSFLEEMKKGHLERECMEETCSYEEAREVFEDSDKTNEFWNKYKDGDQCETSPCQNQGKCKDGLGEYTCTCLEGFEGKNCELFTRKLCSLDNGDCDQFCHEEQNSVVCSCARGYTLADNGKACIPTGPYPCGKQTLERRKRSVAQATSSSGEAPDSITWKPYDAADLDPTENPFDLLDFNQTQPERGDNNLTRIVGGQECKDGECPWQALLINEENEGFCGGTILSEFYILTAAHCLYQAKRFKVRVGDRNTEQEEGGEAVHEVEVVIKHSTYVPGTYDFDIAVLRLKTPITFRMNVAPACLPERDWAESTLMTQKTGIVSGFGRTHEKGRQSTRLKMLEVPYVDRNSCKLSSSFIITQNMFCAGYDTKQEDACQGDSGGPHVTRFKDTYFVTGIVSWGEGCARKGKYGIYTKVTAFLKWIDRSMKTRGLPKAKSHAPEVITSSPLK
Take B1: the “response to TFPI (TFPI activity)” value in data set [4] is on record as “much smaller response to TPFI compared to andexanet alfa”. Also, in data set [2] (FIG. 1G), the “fold higher IC50 values for apixaban compared to the wild-type FXa” value is listed as roughly 70 fold. Besides, the IC50 in data set [2] is 151 to 250 nM. Besides, the Bleeding time result in data set [1] (setting [5]) is “significantly reduced bleeding time”; in data set [1] (setting [6]) it was “significant decrease”. In addition, the Blood loss entry in data set [1] (1 mg/kg infused 5 min after apixaban, FIG. 3D) is given as “successfully reversed the anticoagulant effect of apixaban”; in data set [1] (setting [7]), “significant decrease”. The “Bleeding profile (bleeding graphs)” value in data set [1] was “multiple breaks in blood flowing from the tail cut”. Besides, the Km in data set [3] stood at 0.219 ± 0.014 µM. Further, the “potency compared with wild type FXa” value in data set [3] (thrombin generation assay as worded) was “less potent than wild type FXa”.

B2: Variant 69: modified Factor Xa polypeptide, amino acids 312-317 replaced with KNYQPD, S4 subsite, SEQ ID NO: 12 (protein)
chain: GPANSFLEEMKKGHLERECMEETCSYEEAREVFEDSDKTNEFWNKYKDGDQCETSPCQNQGKCKDGLGEYTCTCLEGFEGKNCELFTRKLCSLDNGDCDQFCHEEQNSVVCSCARGYTLADNGKACIPTGPYPCGKQTLERRKRSVAQATSSSGEAPDSITWKPYDAADLDPTENPFDLLDFNQTQPERGDNNLTRIVGGQECKDGECPWQALLINEENEGFCGGTILSEFYILTAAHCLYQAKRFKVRVGDRNTEQEEGGEAVHEVEVVIKHKNYQPDTYDFDIAVLRLKTPITFRMNVAPACLPERDWAESTLMTQKTGIVSGFGRTHEKGRQSTRLKMLEVPYVDRNSCKLSSSFIITQNMFCAGYDTKQEDACQGDSGGPHVTRFKDTYFVTGIVSWGEGCARKGKYGIYTKVTAFLKWIDRSMKTRGLPKAKSHAPEVITSSPLK
In data set [2], B2 had an IC50 of 5 to 50 nM.
